Measured values: publication PMC7247576

Key:
[1] = biological target: FAM-labelled APE1NΔ61 (human APE1 without 61 N-terminal amino acid residues) (human) (UniProt P27695); assay: FRET or BRET; 40 nM FAM-labelled APE1 form with TMR-labelled partner in the presence of 400 nM AP-DNA; binding buffer with 10 mM EDTA; change of E against no DNA
[2] = biological target: FAM-labelled APE1NΔ35 (human APE1 without 35 N-terminal amino acid residues) (human) (UniProt P27695); assay: as above
[3] = biological target: FAM-labelled APE1NΔ61 (human APE1 without 61 N-terminal amino acid residues) (human) (UniProt P27695); assay: FRET or BRET; 40 nM FAM-labelled APE1 form with TMR-labelled partner in the presence of 400 nM incised AP-DNA (AP-DNA inc); binding buffer with 10 mM EDTA; change of E against no DNA
[4] = biological target: FAM-labelled APE1NΔ35 (human APE1 without 35 N-terminal amino acid residues) (human) (UniProt P27695); assay: as above
[5] = biological target: FAM-labelled APE1NΔ61 (human APE1 without 61 N-terminal amino acid residues) (human) (UniProt P27695); assay: FRET or BRET; 40 nM FAM-labelled APE1 form (donor) with TMR-labelled or unlabelled partner (acceptor), no DNA; E = 1 - Fda/Fd; 50 mM HEPES pH 8.0, 100 mM NaCl, 4 mM DTT
[6] = biological target: FAM-labelled APE1NΔ35 (human APE1 without 35 N-terminal amino acid residues) (human) (UniProt P27695); assay: as above
[7] = biological target: FAM-labelled APE1NΔ61 (human APE1 without 61 N-terminal amino acid residues) (human) (UniProt P27695); assay: FRET or BRET; 40 nM FAM-labelled APE1 form with TMR-labelled partner in the presence of 400 nM gap-DNA; binding buffer with 10 mM EDTA; change of E against no DNA
[8] = biological target: FAM-labelled APE1NΔ61 (human APE1 without 61 N-terminal amino acid residues) (human) (UniProt P27695); assay: other fluorescence titration; 40 nM FAM-labelled APE1 form premixed with 400 nM gap-DNA, titrated with unlabelled partner; binding buffer with 10 mM EDTA; apparent constants (EC50)
[9] = biological target: FAM-labelled APE1NΔ61 (human APE1 without 61 N-terminal amino acid residues) (human) (UniProt P27695); assay: other fluorescence titration; 40 nM FAM-labelled APE1 form premixed with 400 nM incised AP-DNA (AP-DNA inc), titrated with unlabelled partner; binding buffer with 10 mM EDTA; apparent constants (EC50)
[10] = biological target: FAM-labelled APE1NΔ35 (human APE1 without 35 N-terminal amino acid residues) (human) (UniProt P27695); assay: as above
[11] = biological target: FAM-labelled APE1NΔ61 (human APE1 without 61 N-terminal amino acid residues) (human) (UniProt P27695); assay: other fluorescence titration; 40 nM FAM-labelled APE1 form titrated with unlabelled partner, no DNA; 50 mM HEPES pH 8.0, 100 mM NaCl, 4 mM DTT; excitation 482 nm, emission 530 nm; apparent constants (EC50, four-parameter fit)
[12] = biological target: FAM-labelled APE1NΔ35 (human APE1 without 35 N-terminal amino acid residues) (human) (UniProt P27695); assay: as above
[13] = biological target: FAM-labelled APE1NΔ61 (human APE1 without 61 N-terminal amino acid residues) (human) (UniProt P27695); assay: other fluorescence titration; 40 nM FAM-labelled APE1 form premixed with 400 nM AP-DNA, titrated with unlabelled partner; binding buffer with 10 mM EDTA; apparent constants (EC50)
[14] = biological target: FAM-labelled APE1NΔ35 (human APE1 without 35 N-terminal amino acid residues) (human) (UniProt P27695); assay: as above

Row | Substance | change in FRET efficiency E with AP-DNA [1] | change in FRET efficiency E with AP-DNA [2] | change in FRET efficiency E with AP-DNA inc [3] | change in FRET efficiency E with AP-DNA inc [4] | FRET efficiency E [5] | FRET efficiency E [6] | change in FRET efficiency E with gap-DNA [7] | EC50 [8] [nM] | EC50 [9] [nM] | EC50 [10] [nM] | EC50 [11] [nM] | EC50 [12] [nM] | EC50 [13] [nM] | EC50 [14] [nM]
1 | TMR-labelled DNA polymerase β (rat) (from UniProt P06766 1-335) (enzyme) | -0.08 | -0.08 | -0.09 | -0.08 | 0.22 | 0.16 | -0.07 |  |  |  |  |  |  | 
2 | DNA polymerase β (rat) (from UniProt P06766 1-335) (enzyme) |  |  |  |  |  |  |  | 140 | 130 | 110 | 120 | 97 | 110 | 91
